This is an account of results in ChEMBL document CHEMBL1122030, “2-Arylpyrazolo[4,3-c]quinolin-3-ones: novel agonist, partial agonist, and antagonist of benzodiazepines” (J Med Chem, 1982).

The chains behind the UniProt entries cited, without tags or fusion partners. Where a name states a change or a piece, a line headed by the entry shows the natural chain unless it says otherwise.
UniProt O09028: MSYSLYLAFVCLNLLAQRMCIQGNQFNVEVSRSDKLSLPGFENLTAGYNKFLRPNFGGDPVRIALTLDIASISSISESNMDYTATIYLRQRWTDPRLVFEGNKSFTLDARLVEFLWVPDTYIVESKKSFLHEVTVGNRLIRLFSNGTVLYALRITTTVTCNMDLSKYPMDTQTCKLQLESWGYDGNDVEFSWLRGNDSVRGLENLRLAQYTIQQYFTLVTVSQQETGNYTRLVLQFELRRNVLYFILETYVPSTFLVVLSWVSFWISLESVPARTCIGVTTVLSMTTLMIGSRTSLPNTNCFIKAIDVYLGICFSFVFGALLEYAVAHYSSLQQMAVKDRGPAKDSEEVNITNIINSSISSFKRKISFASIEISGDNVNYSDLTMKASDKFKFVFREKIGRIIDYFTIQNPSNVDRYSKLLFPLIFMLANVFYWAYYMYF
UniProt P15431: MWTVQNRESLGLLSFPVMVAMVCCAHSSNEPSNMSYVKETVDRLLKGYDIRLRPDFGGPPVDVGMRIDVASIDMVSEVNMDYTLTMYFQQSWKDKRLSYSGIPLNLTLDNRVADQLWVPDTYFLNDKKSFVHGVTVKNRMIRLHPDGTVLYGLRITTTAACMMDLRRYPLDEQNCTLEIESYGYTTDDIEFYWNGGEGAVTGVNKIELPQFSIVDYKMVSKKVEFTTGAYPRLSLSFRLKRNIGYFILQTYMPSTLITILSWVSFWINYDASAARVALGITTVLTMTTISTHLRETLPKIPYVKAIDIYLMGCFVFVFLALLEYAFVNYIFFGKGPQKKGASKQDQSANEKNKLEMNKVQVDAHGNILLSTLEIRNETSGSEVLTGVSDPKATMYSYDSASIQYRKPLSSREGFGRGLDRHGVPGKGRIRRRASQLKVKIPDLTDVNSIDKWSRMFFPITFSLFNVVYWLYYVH
UniProt P18506: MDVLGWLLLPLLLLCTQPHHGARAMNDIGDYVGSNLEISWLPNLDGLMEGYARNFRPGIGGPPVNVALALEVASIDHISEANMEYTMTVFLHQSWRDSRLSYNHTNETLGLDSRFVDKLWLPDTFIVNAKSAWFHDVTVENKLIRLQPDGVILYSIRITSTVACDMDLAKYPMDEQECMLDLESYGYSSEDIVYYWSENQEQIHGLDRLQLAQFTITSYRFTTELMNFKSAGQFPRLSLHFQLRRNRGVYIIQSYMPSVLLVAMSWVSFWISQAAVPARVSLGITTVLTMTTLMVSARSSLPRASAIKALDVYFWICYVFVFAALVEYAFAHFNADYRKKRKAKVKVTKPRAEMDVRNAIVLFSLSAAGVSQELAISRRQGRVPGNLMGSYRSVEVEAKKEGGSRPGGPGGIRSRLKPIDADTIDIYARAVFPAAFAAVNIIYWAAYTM
UniProt P18508: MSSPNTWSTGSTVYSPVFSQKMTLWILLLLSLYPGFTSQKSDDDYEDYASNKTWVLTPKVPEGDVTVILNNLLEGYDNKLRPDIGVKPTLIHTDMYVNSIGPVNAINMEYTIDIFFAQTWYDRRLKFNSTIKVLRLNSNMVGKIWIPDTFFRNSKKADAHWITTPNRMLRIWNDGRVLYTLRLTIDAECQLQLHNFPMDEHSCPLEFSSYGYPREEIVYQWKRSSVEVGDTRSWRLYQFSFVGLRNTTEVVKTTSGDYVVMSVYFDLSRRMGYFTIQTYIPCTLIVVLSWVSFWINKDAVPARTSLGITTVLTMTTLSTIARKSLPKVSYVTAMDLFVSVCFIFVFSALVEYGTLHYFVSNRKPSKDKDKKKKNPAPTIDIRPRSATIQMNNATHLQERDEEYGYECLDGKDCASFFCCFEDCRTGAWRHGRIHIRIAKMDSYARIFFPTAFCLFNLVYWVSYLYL
UniProt P19969: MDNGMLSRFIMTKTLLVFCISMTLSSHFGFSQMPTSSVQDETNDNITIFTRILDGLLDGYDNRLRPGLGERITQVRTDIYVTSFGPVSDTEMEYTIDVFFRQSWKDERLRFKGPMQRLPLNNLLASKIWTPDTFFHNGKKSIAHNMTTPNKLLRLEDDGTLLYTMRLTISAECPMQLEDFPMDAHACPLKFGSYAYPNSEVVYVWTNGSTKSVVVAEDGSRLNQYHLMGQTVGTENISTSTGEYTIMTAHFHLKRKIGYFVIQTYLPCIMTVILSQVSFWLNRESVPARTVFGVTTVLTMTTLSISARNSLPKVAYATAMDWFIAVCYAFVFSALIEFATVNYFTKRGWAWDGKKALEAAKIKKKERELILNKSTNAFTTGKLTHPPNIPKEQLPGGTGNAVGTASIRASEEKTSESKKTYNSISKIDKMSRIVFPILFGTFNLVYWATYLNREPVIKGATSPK
UniProt P23574: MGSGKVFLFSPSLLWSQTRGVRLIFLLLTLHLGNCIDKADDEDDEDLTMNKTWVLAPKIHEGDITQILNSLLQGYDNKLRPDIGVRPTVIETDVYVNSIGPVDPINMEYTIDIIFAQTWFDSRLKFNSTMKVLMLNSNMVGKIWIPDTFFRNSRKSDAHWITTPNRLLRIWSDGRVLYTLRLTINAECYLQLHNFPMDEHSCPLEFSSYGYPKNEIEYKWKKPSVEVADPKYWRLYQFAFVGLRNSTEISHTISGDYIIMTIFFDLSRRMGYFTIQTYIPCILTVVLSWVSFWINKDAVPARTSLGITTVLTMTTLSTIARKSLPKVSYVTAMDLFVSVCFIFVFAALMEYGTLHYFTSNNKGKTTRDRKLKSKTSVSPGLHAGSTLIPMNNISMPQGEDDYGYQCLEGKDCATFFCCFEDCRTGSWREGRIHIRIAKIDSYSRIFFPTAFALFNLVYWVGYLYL
UniProt P23576: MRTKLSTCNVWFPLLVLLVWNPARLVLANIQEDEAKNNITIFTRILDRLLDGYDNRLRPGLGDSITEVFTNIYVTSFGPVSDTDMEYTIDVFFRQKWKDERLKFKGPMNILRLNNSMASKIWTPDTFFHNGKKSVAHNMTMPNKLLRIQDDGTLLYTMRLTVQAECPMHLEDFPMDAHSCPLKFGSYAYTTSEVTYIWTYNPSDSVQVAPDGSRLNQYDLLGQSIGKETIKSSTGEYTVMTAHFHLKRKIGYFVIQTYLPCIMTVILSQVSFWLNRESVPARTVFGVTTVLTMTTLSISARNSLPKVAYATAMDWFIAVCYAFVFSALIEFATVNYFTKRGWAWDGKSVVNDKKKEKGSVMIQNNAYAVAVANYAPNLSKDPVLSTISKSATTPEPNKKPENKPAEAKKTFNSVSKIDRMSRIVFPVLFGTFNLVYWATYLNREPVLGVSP
UniProt P28471: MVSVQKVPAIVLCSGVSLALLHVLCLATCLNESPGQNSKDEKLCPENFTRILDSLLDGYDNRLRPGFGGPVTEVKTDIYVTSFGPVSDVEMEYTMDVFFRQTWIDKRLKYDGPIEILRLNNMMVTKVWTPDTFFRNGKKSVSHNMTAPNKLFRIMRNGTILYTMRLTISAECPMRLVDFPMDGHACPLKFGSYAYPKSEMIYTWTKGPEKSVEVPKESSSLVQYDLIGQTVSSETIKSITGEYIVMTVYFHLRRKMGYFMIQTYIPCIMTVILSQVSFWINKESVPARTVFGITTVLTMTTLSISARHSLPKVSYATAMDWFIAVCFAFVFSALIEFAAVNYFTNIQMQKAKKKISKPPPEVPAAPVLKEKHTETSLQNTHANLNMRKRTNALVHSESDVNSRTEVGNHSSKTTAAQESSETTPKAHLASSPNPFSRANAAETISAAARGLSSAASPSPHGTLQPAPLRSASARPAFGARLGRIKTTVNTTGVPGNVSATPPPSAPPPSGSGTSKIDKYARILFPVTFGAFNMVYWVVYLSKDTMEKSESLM
UniProt P28473: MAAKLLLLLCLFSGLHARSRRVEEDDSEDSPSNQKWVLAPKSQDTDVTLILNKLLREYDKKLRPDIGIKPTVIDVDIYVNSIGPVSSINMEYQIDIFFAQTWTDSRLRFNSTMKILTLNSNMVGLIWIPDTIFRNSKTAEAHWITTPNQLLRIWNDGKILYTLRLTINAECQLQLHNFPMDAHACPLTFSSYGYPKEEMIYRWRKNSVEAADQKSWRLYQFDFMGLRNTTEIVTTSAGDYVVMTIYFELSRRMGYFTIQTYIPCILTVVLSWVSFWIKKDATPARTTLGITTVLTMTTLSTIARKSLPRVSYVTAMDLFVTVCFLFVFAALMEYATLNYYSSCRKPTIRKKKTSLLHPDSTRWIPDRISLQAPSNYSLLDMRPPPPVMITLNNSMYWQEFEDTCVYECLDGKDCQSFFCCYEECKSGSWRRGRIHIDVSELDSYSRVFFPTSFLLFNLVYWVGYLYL
UniProt P30191: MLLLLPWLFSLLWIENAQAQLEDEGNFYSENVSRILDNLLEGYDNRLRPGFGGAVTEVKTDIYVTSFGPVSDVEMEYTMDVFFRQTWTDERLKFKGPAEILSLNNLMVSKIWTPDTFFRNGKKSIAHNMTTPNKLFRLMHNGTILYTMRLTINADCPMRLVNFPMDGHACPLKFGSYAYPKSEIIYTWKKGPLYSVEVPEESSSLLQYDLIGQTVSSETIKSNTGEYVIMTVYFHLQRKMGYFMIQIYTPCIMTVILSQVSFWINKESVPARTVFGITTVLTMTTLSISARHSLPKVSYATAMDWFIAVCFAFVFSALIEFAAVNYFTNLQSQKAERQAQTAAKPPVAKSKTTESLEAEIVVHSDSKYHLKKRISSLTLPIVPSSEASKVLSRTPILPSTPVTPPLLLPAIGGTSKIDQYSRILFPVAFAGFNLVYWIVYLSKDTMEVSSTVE
UniProt P62813: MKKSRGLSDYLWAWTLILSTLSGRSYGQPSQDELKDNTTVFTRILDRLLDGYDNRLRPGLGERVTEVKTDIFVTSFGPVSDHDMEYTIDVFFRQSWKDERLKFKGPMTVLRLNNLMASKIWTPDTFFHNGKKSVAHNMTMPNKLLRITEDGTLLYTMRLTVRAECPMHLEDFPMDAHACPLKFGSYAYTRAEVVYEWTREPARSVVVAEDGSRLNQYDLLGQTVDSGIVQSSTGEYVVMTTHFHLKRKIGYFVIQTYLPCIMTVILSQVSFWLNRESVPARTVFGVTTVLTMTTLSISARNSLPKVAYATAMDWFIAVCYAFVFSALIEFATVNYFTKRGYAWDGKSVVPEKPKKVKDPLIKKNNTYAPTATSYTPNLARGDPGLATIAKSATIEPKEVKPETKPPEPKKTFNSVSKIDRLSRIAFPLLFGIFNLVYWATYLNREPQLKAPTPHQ
UniProt P63079: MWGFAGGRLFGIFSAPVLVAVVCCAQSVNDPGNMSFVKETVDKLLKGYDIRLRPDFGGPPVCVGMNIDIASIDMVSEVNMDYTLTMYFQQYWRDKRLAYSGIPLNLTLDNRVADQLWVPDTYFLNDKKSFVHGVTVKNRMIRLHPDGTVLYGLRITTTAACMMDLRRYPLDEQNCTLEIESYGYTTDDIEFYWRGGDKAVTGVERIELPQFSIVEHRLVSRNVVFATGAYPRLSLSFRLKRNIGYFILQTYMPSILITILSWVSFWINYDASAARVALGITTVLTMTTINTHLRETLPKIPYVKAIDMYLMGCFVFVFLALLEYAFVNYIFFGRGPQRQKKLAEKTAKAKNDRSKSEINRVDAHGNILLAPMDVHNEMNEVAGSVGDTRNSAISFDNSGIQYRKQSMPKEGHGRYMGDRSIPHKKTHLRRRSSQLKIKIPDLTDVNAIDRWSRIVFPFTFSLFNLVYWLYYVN
UniProt P63138: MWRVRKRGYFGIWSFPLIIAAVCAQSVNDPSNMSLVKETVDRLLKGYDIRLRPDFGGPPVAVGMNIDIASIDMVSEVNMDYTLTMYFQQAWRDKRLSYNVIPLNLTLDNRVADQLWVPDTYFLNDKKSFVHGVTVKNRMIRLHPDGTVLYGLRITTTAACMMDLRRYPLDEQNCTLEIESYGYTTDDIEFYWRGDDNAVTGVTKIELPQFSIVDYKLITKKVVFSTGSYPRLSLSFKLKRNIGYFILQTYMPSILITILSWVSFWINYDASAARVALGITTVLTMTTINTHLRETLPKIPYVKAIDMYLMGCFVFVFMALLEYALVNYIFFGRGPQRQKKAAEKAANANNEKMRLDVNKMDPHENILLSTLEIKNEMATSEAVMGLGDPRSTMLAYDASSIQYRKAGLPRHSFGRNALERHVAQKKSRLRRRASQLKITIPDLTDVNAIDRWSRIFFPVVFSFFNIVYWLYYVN
UniProt Q9ES14: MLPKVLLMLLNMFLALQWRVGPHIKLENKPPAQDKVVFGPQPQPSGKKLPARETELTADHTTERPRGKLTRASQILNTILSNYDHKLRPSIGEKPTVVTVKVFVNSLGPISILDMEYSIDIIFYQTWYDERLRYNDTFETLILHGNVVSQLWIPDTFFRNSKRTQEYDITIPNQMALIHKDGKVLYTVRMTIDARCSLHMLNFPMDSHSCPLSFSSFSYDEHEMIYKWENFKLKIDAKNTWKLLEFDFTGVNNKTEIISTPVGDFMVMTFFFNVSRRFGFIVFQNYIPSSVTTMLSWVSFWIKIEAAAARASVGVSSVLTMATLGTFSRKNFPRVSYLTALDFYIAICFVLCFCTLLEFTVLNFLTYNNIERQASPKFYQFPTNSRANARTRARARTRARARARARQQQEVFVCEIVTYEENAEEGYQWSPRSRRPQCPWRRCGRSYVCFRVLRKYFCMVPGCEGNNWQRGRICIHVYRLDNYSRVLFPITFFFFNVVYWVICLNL

The assay concerns the target GABA-A receptor; anion channel (Rattus norvegicus) (UniProt O09028+P15431+P18506+P18508+P19969+P20236+P23574+P23576+P28471+P28473+P30191+P62813+P63079+P63138+Q91ZM7+Q9ES14).

For `COc1ccc(-n2nc3c4ccccc4[nH]cc-3c2=O)cc1`, the ID50 is 0.81 mg/kg.
